Assay results: paper PMC7717682 (Journal of Enzyme Inhibition and Medicinal Chemistry, 2020)

Amino acid sequences for entries named in this document (tags omitted). A change or cut given only in a name is not applied to a line headed by its entry.
UniProt P05804: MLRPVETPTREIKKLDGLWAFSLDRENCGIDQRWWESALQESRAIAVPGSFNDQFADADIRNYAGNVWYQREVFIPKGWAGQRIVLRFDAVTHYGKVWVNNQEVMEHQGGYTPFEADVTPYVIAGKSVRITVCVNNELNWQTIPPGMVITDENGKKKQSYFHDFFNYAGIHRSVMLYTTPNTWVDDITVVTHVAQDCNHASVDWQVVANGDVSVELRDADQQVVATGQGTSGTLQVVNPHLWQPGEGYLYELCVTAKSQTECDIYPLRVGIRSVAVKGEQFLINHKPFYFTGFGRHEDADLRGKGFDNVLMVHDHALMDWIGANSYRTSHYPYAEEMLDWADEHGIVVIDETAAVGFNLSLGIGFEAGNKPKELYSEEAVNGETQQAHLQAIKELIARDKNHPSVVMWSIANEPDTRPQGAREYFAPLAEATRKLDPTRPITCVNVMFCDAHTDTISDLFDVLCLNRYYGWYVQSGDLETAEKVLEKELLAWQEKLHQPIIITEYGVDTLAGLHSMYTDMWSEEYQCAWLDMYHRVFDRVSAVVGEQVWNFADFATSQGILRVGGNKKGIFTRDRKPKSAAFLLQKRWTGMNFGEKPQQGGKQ

Biological target: Escherichia coli GUS (EcGUS) (Escherichia coli, UniProt P05804)
Assay: EcGUS inhibition assay
Type: biochemical
Conditions: read-out: IC50 against EcGUS; pNPG 250 µM, PBS pH 7.4, 37 °C, 30 min

Q: acetylacteoside was tested. Which IC50 did it give?
A: 6.6 µM
